# Measurements published in PubChem BioAssay AID2237 (Johns Hopkins Ion Channel Center, 2010).
# Protein sequences, listed by entry. Tags and fused reporters are not part of them.
# UniProt Q9QUQ5, whole entry: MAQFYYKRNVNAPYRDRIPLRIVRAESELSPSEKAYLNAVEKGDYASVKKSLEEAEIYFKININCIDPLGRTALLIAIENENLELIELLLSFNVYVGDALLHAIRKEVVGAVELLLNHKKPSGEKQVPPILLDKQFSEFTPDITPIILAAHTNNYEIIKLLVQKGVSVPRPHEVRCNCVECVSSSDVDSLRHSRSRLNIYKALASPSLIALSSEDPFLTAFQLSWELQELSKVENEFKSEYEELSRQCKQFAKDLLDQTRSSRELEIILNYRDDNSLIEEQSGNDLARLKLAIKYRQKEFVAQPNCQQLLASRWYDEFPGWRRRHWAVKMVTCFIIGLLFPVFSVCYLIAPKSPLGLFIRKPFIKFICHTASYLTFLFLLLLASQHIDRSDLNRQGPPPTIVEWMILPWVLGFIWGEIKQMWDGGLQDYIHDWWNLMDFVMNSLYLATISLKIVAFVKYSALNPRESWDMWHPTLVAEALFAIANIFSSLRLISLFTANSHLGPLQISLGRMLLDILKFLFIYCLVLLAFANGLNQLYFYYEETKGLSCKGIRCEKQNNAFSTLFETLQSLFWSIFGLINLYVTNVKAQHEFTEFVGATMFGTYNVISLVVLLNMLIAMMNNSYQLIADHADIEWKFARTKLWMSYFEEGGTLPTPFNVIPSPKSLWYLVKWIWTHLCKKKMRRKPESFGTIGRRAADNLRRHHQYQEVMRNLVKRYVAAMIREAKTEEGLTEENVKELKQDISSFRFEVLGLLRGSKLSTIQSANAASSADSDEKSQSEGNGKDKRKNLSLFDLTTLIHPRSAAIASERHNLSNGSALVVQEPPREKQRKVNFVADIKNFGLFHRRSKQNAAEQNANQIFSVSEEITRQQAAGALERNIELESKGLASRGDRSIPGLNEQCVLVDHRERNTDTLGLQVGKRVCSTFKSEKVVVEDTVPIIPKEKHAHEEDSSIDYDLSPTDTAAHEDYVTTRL
# The entries are a selection whose mix differs from that of the whole data set. Some tests of the compounds listed are not included; inactive here does not mean inactive elsewhere. Activity calls are given as the source filed them.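 The calls were made as follows: active = B-score above 5 SD of library B-scores, and initial fluorescence ratio not above library mean plus 5 SD; inactive = the rest.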
# Biological target: Short transient receptor potential channel 4 (Mus musculus) (UniProt Q9QUQ5)
# Test: activators of mouse TRPC4 channel, primary screen, Fluo4 calcium, HEK293 TRPC4beta/mu-opioid cells (AID 2237)
# Conditions: Fluo4 calcium fluorescence, at 10 µM
row,Compound,outcome
1,CN(C)c1cccc(C(=O)NCC2(N(C)C)CCCCC2)c1,inactive
2,CC(C)Oc1ccc(C(=O)NCC2(N(C)C)CCCCC2)cc1,inactive
3,COc1ccc(Br)c(C(=O)NCC2(N3CCCCC3)CCCCC2)c1,inactive
4,O=C(OC1CN2CCC1CC2)C(CO)(c1ccccc1)c1ccccc1 (stereo not drawn),inactive
5,O=C(NCC1(N2CCCCC2)CCCCC1)c1cccc(Cl)c1,inactive
6,COc1cccc(C(=O)NCC2(N3CCCCC3)CCCCC2)c1,inactive
7,COc1ccc(Cl)cc1C(=O)NCC1(N(C)C)CCCCC1,inactive
8,COc1cc(C(=O)NCC2(N(C)C)CCCCC2)c([N+](=O)[O-])cc1OC,inactive
9,CN(C)C1(CNC(=O)c2ccc(Br)cc2)CCCCC1,inactive
10,CCN1CCCC(OC(=O)C2(O)c3ccccc3C=Cc3ccccc32)C1 (stereo not drawn),inactive
11,Cc1cc(C(=O)NCC2(N3CCCCC3)CCCCC2)ccc1[N+](=O)[O-],inactive
12,O=C(NCC1(N2CCCCC2)CCCCC1)c1cccc(Br)c1,inactive
13,COc1ccc(C(=O)NCC2(N(C)C)CCCCC2)cc1,inactive
14,C=CCN1CCN(CCOC(=O)C(O)(c2ccccc2)c2ccccc2)CC1,inactive
15,O=C(NCC1(N2CCCCC2)CCCCC1)c1cc(F)c(F)cc1Cl,inactive
16,Cc1ccccc1C(=O)NCC1(N2CCCCC2)CCCCC1,inactive
17,CN(C)C1CCCC1OC(=O)C(O)(c1ccccc1)c1ccccc1 (stereo not drawn),inactive
18,Cc1ccc(C(=O)NCC2(N3CCCCC3)CCCCC2)cc1,inactive
19,CC(C)N1C(=O)CC2(CCN(CCOC(=O)C(O)(c3ccccc3)c3ccccc3)CC2)C1=O,inactive
20,CCN(CC)CC(C)C(C)OC(=O)C(O)(c1ccccc1)c1ccccc1 (stereo not drawn),inactive
21,COc1cc(SC)ccc1C(=O)NCC1(N(C)C)CCCCC1,inactive
22,CN1[C@@H]2CC[C@H]1CC(OC(=O)C(O)(c1ccccc1)c1ccccc1)C2 (stereo partly drawn),inactive
23,O=C(NCC1(N2CCCCC2)CCCCC1)c1cc([N+](=O)[O-])ccc1Cl,inactive
